# Data from patent publication US20100093760A1, “METHODS FOR IDENTIFYING COMPOUNDS THAT MODULATE CELL SIGNALING AND METHODS EMPLOYING SUCH COMPOUNDS” (The General Hospital Corporation, priority 2006, published 2010).
# B1: BMP2: recombinant bone morphogenetic protein ligand (R&D Systems) (protein, UniProt P12643 283-396, looked up)
# Bone morphogenetic protein 2: QAKHKQRKRLKSSCKRHPLYVDFSDVGWNDWIVAPPGYHAFYCHGECPFPLADHLNSTNHAIVQTLVNSVNSKIPKACCVPTELSAISMLYLDENEKVVLKNYQDMVVEGCGCR
# How the values were obtained:
# [1] = tested on: hepcidin promoter; assay: Hepcidin promoter luciferase reporter assay (Hep-Luc) in Hep3B cells; assay type: cell-based; details: BMP2 25 ng/ml
# Method: Murine PASMCs grown to 50% confluence in 6-well plates were transiently transfected with 0.3 μg Id1 promoter luciferase reporter construct (BRE-Luc, Dr. Peter ten Dijke, Leiden University Medical Center, Netherlands (Korchynskyi et al., J. Biol. Chem. 277:4883-4891, 2002)) in combination with 0.6 μg plasmids expressing constitutively-active forms of BMP type I receptors (caALK2, caALK3, or caALK6, kindly provided by Dr. Kohei Miyazono, University of Tokyo, Japan (Fujii et al., Mol. Biol. Cell 10:3801-3813, 1999)), using Fugene6 (Roche). To assess Activin and […] type I receptor function, PASMCs were transiently transfected with 0.3 μg PAI-1 promoter luciferase reporter construct (CAGA-Luc, Dr. Peter ten Dijke (Dennler et al., Embo J. 17:3091-3100, 1998)) in combination with 0.6 μg plasmids expressing constitutively active forms of type I receptors (caALK4, caALK5, and caALK7, also provided by Dr. Kohei Miyazono (Okadome et al., J. Biol. Chem. 271:21687-21690, 1996; Shimizu et al., Genes Cells 3:125-134, 1998)). For both reporters, 0.2 μg pRL-TK Renilla luciferase (Promega) was used to control for transfection efficiency. […] Cell extracts were harvested, and relative promoter activity quantitated by the ratio of firefly to Renilla luciferase activity using the dual luciferase assay kit (Promega). […] Hepcidin promoter activity was measured by luciferase assay as above.
# [2] = tested on: hepcidin (HAMP) mRNA; assay: Hepcidin mRNA qRT-PCR in HepG2 cells; assay type: cell-based, human; details: BMP2
# Method: Hep3B or HepG2 cells were incubated in 1% FCS α-MEM for 6 hours in the presence or absence of Compound C/Dorsomorphin (10 μM) with or without BMP2 (25 ng/ml) or human IL-6 (R&D Biosystems, 100 ng/ml), and RNA then extracted from cultured cells with Trizol. Quantitative RT-PCR was performed for mRNA encoding Id1 or human hepcidin (HAMP) as previously described (Babitt et al., Nat. Genet. 38:531-539, 2006; Yu et al., J. Biol. Chem. 280:24443-24450, 2005), and normalized to 18S ribosomal RNA (rRNA) or β-actin mRNA levels.
molecule,measurement,setting,value
B1,increase in hepcidin promoter activity (Hep-Luc),[1],~50 fold
same,increase in hepcidin mRNA over the basal level,[2],16 fold
